The numbers were not newly measured in patent publication US7314882B2, “Bicyclic heterocycles as cannabinoid receptor modulators” (Bristol-Myers Squibb Company, priority 2005, dated 2008), which cites them from elsewhere.

One data set relates to smoking behavior. The following applies: highest dose; 14.8% for placebo.
In data set [1] the test system is body weight and adipose tissue mass. The following applies: chronic administration for two weeks.

Turning to `Cc1c(C(=O)NN2CCCCC2)nn(-c2ccc(Cl)cc2Cl)c1-c1ccc(Cl)cc1` [SR-141716], in the data set with smoking behavior, the “patients who stayed abstinent from cigarette smoke” value is 30.2%.
On to AM-251, for which, in data set [1], the adipose tissue mass result is “decreased adipose tissue mass” and the body weight result is “substantial body weight reduction”.
